Test results taken from patent US20170269061A1, “METHOD FOR ASSESSING SENSITIVITY OF A TARGET DRUG IN VITRO AND A BIOMARKER USED THEREOF” (Tunghai University, priority 2016, published 2017).

System: BT-474 cells
Assay: Immunofluorescence microscopy of drug localization (Cell Experiment I)
Type: cell-based
Conditions: T-DM1 1 μg/ml or trastuzumab 10 μg/ml for 30 min
Experimental: After washing, each of the cells was fixed with 3.7% formaldehyde and permeabilized with 0.1% Triton-X 100. The fixed cells were incubated with rabbit anti-caveolin-1 antibody (1:100 dilution in PBS/0.1% Triton-100/3% BSA) at room temperature for 1 hour and then incubated with Cy3-conjugated anti-rabbit secondary antibodies (1:200 dilution in PBS/0.1% Triton-100/3% BSA) at room temperature for 1 hour. […] Expression of endocytic protein in each of the cells was observed by immunofluorescence microscopy, the results were shown as FIGS. 9 and 10.

## trastuzumab
  localization of drug in cells: localized only in the cell membrane
